# Measured values from article PMC6751662, “Pharmacological and functional similarities of the human neuropeptide Y system in C. elegans challenges phylogenetic views on the FLP/NPR system” (Cell Communication and Signaling : CCS, 2019).
# By UniProt entry, the sequences of proteins in these tests, tags left out. Where a name states a change or a piece, a line headed by the entry shows the natural chain unless it says otherwise.
# UniProt Q9GZQ6: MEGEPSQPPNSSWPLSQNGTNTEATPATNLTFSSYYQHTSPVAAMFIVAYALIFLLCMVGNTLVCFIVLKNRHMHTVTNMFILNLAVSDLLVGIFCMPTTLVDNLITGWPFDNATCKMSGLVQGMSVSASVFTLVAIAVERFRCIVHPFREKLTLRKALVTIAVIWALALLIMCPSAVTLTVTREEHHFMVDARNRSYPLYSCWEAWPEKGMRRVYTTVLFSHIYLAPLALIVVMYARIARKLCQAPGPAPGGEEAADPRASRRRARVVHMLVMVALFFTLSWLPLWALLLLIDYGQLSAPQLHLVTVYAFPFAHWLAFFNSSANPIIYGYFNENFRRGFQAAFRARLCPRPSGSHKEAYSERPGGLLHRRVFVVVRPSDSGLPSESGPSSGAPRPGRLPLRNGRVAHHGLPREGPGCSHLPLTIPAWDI
# UniProt P50391: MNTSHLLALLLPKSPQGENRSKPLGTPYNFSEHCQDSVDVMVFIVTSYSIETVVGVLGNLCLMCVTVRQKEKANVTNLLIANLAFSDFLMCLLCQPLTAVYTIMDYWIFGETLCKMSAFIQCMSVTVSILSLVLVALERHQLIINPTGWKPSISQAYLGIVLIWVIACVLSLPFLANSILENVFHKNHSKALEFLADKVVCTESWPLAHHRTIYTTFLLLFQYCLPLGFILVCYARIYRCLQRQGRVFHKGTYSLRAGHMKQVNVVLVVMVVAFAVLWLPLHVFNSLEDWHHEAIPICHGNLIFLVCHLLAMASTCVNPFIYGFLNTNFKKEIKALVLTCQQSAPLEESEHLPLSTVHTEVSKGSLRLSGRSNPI
# What was measured:
# [1] = biological target: T1, NPR-5b (Caenorhabditis elegans, UniProt Q6F3C9); experiment: cAMP reporter gene assay, Gi/o (with forskolin), NPR-5b; type: cell-based, C. elegans; conditions: 1 µM forskolin set to 1.00, values > 1 = cAMP stimulation, transiently transfected HEK293 cells, mean of at least three independent experiments
# T1 sequence (Q6F3C9 1-433): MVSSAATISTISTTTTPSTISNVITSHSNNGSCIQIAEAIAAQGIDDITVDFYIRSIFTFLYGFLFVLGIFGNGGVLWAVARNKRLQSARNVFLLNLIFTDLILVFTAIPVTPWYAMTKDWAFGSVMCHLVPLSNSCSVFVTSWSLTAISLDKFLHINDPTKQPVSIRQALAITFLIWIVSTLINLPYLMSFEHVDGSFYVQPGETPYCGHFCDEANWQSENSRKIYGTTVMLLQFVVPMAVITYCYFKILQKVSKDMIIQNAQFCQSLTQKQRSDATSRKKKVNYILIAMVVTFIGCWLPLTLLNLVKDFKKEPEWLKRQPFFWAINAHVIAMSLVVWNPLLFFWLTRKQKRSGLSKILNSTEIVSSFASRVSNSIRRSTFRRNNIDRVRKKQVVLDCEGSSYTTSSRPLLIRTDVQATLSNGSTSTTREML
# [2] = biological target: T2, NPFF1R (Homo sapiens, UniProt Q9GZQ6); experiment: IP accumulation assay, chimeric GαΔ6qi4myr, NPFF1R; type: cell-based; conditions: chimeric GαΔ6qi4myr co-transfected, transiently transfected HEK293 cells, mean of at least three independent experiments
# T2 construct: expressed in transfected cells; host or cells: HEK293, transient
# [3] = biological target: T3, Y5R (Homo sapiens, UniProt Q15761); experiment: IP accumulation assay, chimeric GαΔ6qi4myr, Y5R; type: cell-based; conditions: chimeric GαΔ6qi4myr co-transfected, transiently transfected HEK293 cells, mean of at least three independent experiments
# T3 construct: expressed in transfected cells; host or cells: HEK293, transient
# T3 sequence (Q15761 1-445): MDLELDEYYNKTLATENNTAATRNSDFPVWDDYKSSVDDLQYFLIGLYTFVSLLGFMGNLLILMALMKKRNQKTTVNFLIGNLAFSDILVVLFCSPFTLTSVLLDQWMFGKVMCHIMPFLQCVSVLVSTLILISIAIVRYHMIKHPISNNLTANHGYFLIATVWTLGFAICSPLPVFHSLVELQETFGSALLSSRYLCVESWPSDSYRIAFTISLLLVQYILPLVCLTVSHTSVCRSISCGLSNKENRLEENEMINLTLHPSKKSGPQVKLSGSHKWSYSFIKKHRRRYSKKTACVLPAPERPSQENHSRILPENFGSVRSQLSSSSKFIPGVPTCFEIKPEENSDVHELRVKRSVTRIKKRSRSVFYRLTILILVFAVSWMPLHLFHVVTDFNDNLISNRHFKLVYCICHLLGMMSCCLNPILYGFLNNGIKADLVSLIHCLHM
# [4] = system: NPR-6; experiment: cAMP reporter gene assay, Gi/o (inhibition of forskolin-induced cAMP), NPR-6; type: cell-based, C. elegans; conditions: 1 µM forskolin set to 1.00, transiently transfected HEK293 cells, mean of at least three independent experiments
# [5] = biological target: T4, NPR-4b (Caenorhabditis elegans, UniProt A0A078BTK0); experiment: cAMP reporter gene assay, Gi/o (inhibition of forskolin-induced cAMP), NPR-4b; type: cell-based, C. elegans; conditions: 1 µM forskolin set to 1.00, transiently transfected HEK293 cells, mean of at least three independent experiments
# T4 sequence (A0A078BTK0 1-376): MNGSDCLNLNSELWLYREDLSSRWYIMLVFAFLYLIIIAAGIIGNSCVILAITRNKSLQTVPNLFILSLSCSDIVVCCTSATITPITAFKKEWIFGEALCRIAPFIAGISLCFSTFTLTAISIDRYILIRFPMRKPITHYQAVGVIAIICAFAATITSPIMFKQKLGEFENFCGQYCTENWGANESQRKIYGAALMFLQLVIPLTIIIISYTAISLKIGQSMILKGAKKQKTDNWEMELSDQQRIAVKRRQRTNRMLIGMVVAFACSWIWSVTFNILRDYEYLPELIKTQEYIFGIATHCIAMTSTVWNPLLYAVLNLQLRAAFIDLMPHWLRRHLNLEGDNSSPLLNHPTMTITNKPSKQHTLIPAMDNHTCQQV
# [6] = biological target: T5, NPR-3 (Caenorhabditis elegans, UniProt P90745); experiment: cAMP reporter gene assay, Gi/o (inhibition of forskolin-induced cAMP), NPR-3; type: cell-based, C. elegans; conditions: 1 µM forskolin set to 1.00, transiently transfected HEK293 cells, mean of at least three independent experiments
# T5 construct: expressed in transfected cells; host or cells: HEK293
# T5 sequence (P90745 1-376): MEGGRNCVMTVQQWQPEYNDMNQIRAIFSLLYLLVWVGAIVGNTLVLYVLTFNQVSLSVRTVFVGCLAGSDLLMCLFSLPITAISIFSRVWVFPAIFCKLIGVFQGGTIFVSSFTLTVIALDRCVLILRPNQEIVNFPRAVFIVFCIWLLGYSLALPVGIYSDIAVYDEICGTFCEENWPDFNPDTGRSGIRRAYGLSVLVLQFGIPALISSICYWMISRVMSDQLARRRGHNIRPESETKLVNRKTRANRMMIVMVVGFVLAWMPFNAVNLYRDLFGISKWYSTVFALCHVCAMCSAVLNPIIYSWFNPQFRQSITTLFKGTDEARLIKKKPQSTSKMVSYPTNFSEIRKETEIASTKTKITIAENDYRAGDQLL
# [7] = biological target: T6, Y4R (Homo sapiens, UniProt P50391); experiment: IP accumulation assay, chimeric GαΔ6qi4myr, Y4R; type: cell-based; conditions: chimeric GαΔ6qi4myr co-transfected, transiently transfected HEK293 cells, mean of at least three independent experiments
# T6 construct: expressed in transfected cells; host or cells: HEK293, transient
substance,measurement,setting,value
"FLFQPQRF-NH2 [NPFF, human neuropeptide FF, reference compound]","cAMP, x-fold of forskolin (mean), NPR-5b",[1]; 0.1 µM peptide,1.04 x-fold of forskolin
same,"cAMP, x-fold of forskolin (mean), NPR-5b",[1]; 10 µM peptide,1.65 x-fold of forskolin
same,"IP accumulation, x-fold of basal (mean), NPFF1R",[2]; 0.1 µM peptide,1.76 x-fold of basal
same,"IP accumulation, x-fold of basal (mean), NPFF1R",[2]; 10 µM peptide,2.44 x-fold of basal
same,"IP accumulation, x-fold of basal (mean), Y5R",[3]; 0.1 µM peptide,0.59 x-fold of basal
same,"IP accumulation, x-fold of basal (mean), Y5R",[3]; 10 µM peptide,1.11 x-fold of basal
same,"cAMP, x-fold of forskolin (mean), NPR-6",[4]; 0.1 µM peptide,1.08 x-fold of forskolin
same,"cAMP, x-fold of forskolin (mean), NPR-6",[4]; 10 µM peptide,0.43 x-fold of forskolin
same,"cAMP, x-fold of forskolin (mean), NPR-4b",[5]; 0.1 µM peptide,1.00 x-fold of forskolin
same,"cAMP, x-fold of forskolin (mean), NPR-4b",[5]; 10 µM peptide,0.44 x-fold of forskolin
same,"cAMP, x-fold of forskolin (mean), NPR-3",[6]; 0.1 µM peptide,0.98 x-fold of forskolin
same,"cAMP, x-fold of forskolin (mean), NPR-3",[6]; 10 µM peptide,1.00 x-fold of forskolin
same,"IP accumulation, x-fold of basal (mean), Y4R",[7]; 0.1 µM peptide,0.89 x-fold of basal
same,"IP accumulation, x-fold of basal (mean), Y4R",[7]; 10 µM peptide,0.99 x-fold of basal
